These results are taken from patent US20250025440A1, “COMPOSITIONS AND METHODS FOR MANAGEMENT OF HUMAN PAPILLOMA VIRUS-ASSOCIATED CANCERS” (LOMA LINDA UNIVERSITY, priority 2021, published 2025).

The assay has as its system HPV- (SCC19, SCC29) and HPV+ (SCC47, SCC104, SCC152) HNSCC cell lines. As to the kind of experiment: Sensitization of HNSCC cell lines to photon radiation. It is filed as cell-based. The following applies: radiation 0-4Gy followed by inhibitor; DER10. The method, then: FIGS. 11A-11D are graphical representations of the radio-response of HPV^− cell lines (SCC19 and SCC29) and HPV^+ cell lines (SCC47 and SCC104) when subject to photon radiation followed by treatment with either the vehicle alone or cisplatin (CCDP), as measured by MTT assays. The dose enhancement ratio for 10% survival (DER10) was calculated as follows: DER10=(Dose correlated with 10% survival fraction in radiation-treated cells)/(Dose correlated with 10% survival fraction in radiation and inhibitor treated cells). […] FIGS. 11E-12H are graphical representations of the radio-response of HPV^− cell lines (SCC19 and SCC29) and HPV^+ cell lines (SCC47 and SCC104) when subject to photon radiation followed by treatment with either the vehicle alone or cetuximab, as measured by MTT assays.
CCDP, Cetuximab, and GA-OH were evaluated for their ability to sensitize HNSCC cell lines to photon radiation. […]
Colonies were counted after 14-21 days and normalized to vehicle control and survival analysis was performed. FIGS. 11A-11D are graphical representations of the radio-response of HPV^− cell lines (SCC19 and SCC29) and HPV^+ cell lines (SCC47 and SCC104) when subject to photon radiation followed by treatment with either the vehicle alone or cisplatin (CCDP), as measured by MTT assays. […]
Sensitization of an additional HPV^+ cell line to radiation by CDDP, Cetuximab and GA-OH was evaluated. […]

Regarding “cetuximab: an anti-EGFR monoclonal antibody [reference compound]”, the “sensitization to photon radiation” value is “least sensitization”.
